# AlphaSeq binding of Ab-95 light chain variants to a spike HR2 peptide

Reference: Engelhart et al. 2022, doi:10.1038/s41597-022-01779-4. File: FLAb, binding data.

Binding partner: SARS-CoV-2 spike HR2 peptide, sequence PDVDLGDISGINAS.

Ab-95 is the parent antibody, in scFv form: VH, then a 15-residue (Gly4Ser)3 linker, then VL. The heavy chain is unchanged in all variants.
VH: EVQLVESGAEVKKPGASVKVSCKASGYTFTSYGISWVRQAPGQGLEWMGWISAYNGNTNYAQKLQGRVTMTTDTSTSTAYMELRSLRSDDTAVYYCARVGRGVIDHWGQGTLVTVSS
VL: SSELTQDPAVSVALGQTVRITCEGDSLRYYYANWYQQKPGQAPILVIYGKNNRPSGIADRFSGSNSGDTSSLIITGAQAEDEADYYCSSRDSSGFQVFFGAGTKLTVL

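The library (AAYL52) carries one to three amino acid substitutions per variant, with no insertions or deletions. In AlphaSeq, yeast of one mating type display the scFv and yeast of the other type display the target. The frequency of each diploid, read from paired DNA barcodes, reflects how well the two displayed proteins bind. Read counts were normalised to the haploid input and turned into Kd by a linear fit to BCL2-family pairs of known affinity, for each replicate. Mating was done three times.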

Changes read parent residue, position, new residue, counted from the first residue of the VL shown.
Affinities are written as log10 Kd with Kd in nM; a lower number is a better binder.
"nd" means that the variant was in the library but no mating with the target was seen in that replicate; the authors take this as a sign of poor binding, and no number exists.
Background: pairings of library AAYL52 with three empty control strains gave a value in 28% of cases (median 3.91, 5th percentile 2.90). Values in that range, when seen in few replicates, are hard to tell from nonspecific mating. For each scFv, signals with the empty controls are counted beside the result, with their mean in brackets.

changes | replicates, log10 nM | control signals
R28C+Y29V+Q96W | nd / 4.75 / nd | 1/9 (2.35)
Y31P+A32K | nd / 2.90 / nd | 5/9 (3.34)
R53F+S89C+F98M | nd / nd / 3.93 | 0/9
N52L+S55N+G94K | 4.85 / 4.24 / nd | 0/9
Y30P+G49N+K50I | 2.43 / 1.71 / 1.97 | 2/9 (3.73)
D25R+Q96V+F98Q | 2.76 / 2.71 / nd | 1/9 (4.48)
R28N+N51P+F98P | nd / 4.58 / 3.37 | 5/9 (4.07)
Y31W+D91F+Q96E | 2.87 / 2.85 / 2.87 | 3/9 (4.23)
A32K+R53M+R90C | nd / nd / nd | 0/9
Y30H+A32P+S88T | 2.20 / 2.24 / 3.26 | 3/9 (3.75)
N51I+S88Y+R90N | 3.13 / nd / nd | 0/9
Y31D+G49S+D91A | 1.79 / 1.66 / 1.40 | 3/9 (3.42)
Y31R+R53P+F98Y | nd / 2.80 / 3.41 | 2/9 (4.36)
L27V+N51W+S92D | nd / nd / nd | 3/9 (4.45)
L27I+Y30G+V97P | 1.78 / 1.94 / 1.38 | 5/9 (3.06)
N51A+S89A+V97K | nd / nd / nd | 1/9 (2.61)
E23I+A32D+Q96C | 4.27 / nd / 4.46 | 5/9 (4.16)
A32F+N33I+N52K | nd / nd / 3.19 | 2/9 (3.78)
G24D+G94A+F95Y | 3.43 / nd / 4.37 | 4/9 (4.22)
G49K+P54W+F95H | nd / nd / nd | 4/9 (4.57)
S88D+S89H+G94C | 2.96 / 2.92 / 2.29 | 4/9 (3.63)
Y29C+R90H+F98S | 3.66 / 4.08 / 3.00 | 6/9 (4.00)
D25T+D91P+V97P | 4.44 / 3.33 / 3.54 | 6/9 (3.99)
S26Y+Y30P+Y31N | 2.01 / 1.54 / 1.25 | 2/9 (3.99)
D25A+Y30I+S55V | 3.26 / 2.16 / 2.13 | 0/9
N33W+S93H+V97T | 4.01 / 5.09 / 3.27 | 4/9 (3.30)
Y30P+N51E+S88C | 2.34 / 1.91 / 2.17 | 0/9
S92I+G94C+V97L | nd / nd / nd | 2/9 (3.75)
Y30G+S92D+G94W | 1.59 / 1.90 / 1.01 | 2/9 (3.88)
Y31P+D91P+S93V | 2.85 / 2.54 / 2.91 | 3/9 (3.47)
L27H+G49I+S89T | 4.94 / 5.72 / 3.46 | 3/9 (4.15)

Extract of 4 entries:

changes | replicates, log10 nM | control signals
N52L+S55N+G94K | 4.85 / 4.24 / nd | 0/9
S26Y+Y30P+Y31N | 2.01 / 1.54 / 1.25 | 2/9 (3.99)
L27I+Y30G+V97P | 1.78 / 1.94 / 1.38 | 5/9 (3.06)
Y31P+A32K | nd / 2.90 / nd | 5/9 (3.34)